Protein sequences, listed by entry. Tags and fused reporters are not part of them. Lines headed by an entry give the natural chain unless they say otherwise; changes in a name come on top.
UniProt P41145: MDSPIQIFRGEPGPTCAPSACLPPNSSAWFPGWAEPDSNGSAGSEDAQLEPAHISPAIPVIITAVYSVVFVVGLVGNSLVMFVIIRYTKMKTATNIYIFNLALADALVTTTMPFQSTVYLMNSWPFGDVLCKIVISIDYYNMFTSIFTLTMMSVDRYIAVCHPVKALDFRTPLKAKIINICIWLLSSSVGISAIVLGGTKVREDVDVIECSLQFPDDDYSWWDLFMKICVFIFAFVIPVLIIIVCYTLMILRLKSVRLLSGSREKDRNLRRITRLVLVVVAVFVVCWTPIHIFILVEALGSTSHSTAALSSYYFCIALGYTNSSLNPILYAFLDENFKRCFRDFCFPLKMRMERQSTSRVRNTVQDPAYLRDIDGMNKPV
UniProt P35372, whole entry, looked up: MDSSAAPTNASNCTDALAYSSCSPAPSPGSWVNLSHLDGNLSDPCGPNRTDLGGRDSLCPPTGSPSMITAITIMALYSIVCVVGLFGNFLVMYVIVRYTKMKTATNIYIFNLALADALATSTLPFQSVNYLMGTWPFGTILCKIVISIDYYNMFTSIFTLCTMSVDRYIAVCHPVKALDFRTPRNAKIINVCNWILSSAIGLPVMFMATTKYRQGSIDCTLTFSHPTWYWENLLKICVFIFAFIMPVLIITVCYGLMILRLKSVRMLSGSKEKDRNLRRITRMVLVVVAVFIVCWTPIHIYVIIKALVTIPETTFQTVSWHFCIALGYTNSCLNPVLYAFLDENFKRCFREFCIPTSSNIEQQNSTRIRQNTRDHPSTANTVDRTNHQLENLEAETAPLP

According to ChEMBL document CHEMBL1909046, “DrugMatrix in vitro pharmacology data”:

Key:
[1] = biological target: Kappa-type opioid receptor (Homo sapiens, UniProt P41145); experiment: DRUGMATRIX: Opiate kappa (OP2, KOP) radioligand binding (ligand: [3H] Diprenorphine); settings: hek293
[2] = biological target: Mu-type opioid receptor (Homo sapiens, UniProt P35372); experiment: DRUGMATRIX: Opiate mu (OP3, MOP) radioligand binding (ligand: [3H] Diprenorphine); settings: cho-k1

C[C@@H]1O[C@@H](O[C@@H]2C=C3CC[C@@H]4[C@H](CC[C@]5(C)[C@@H](c6ccc(=O)oc6)CC[C@]45O)[C@@]3(C)CC2)[C@H](O)[C@H](O)[C@H]1O
Not Active: IC50 [1] | Ki [1] | IC50 [2] | Ki [2]

O=C1C[C@@H]2OCC=C3CN4CC[C@]56c7ccccc7N1[C@H]5[C@H]2[C@H]3C[C@H]46
Not Active: IC50 [1] | Ki [1] | IC50 [2] | Ki [2]

CCCC[C@@H](CC)COC(=O)c1ccccc1C(=O)OC[C@@H](CC)CCCC
Not Active: IC50 [1] | Ki [1] | IC50 [2] | Ki [2]

C[n+]1ccc(-c2cc[n+](C)cc2)cc1.[Cl-].[Cl-]
Not Active: IC50 [1] | Ki [1] | IC50 [2] | Ki [2]

N[C@@H](Cc1ccc(N(CCCl)CCCl)cc1)C(=O)O
Not Active: IC50 [1] | Ki [1] | IC50 [2] | Ki [2]

O=C(O)c1ccccc1O
Not Active: IC50 [1] | Ki [1] | IC50 [2] | Ki [2]

NNc1ccccc1
Not Active: IC50 [1] | Ki [1] | IC50 [2] | Ki [2]

O=C(O)CNCP(=O)(O)O
Not Active: IC50 [1] | Ki [1] | IC50 [2] | Ki [2]

Nc1ccc(Cc2ccc(N)cc2)cc1
Not Active: IC50 [1] | Ki [1] | IC50 [2] | Ki [2]

O=C(O)CCCc1ccc(N(CCCl)CCCl)cc1 [CHLORAMBUCIL]
Not Active: IC50 [1] | Ki [1] | IC50 [2] | Ki [2]

CC[C@@H](C(=O)[C@@H](C)[C@@H](O)[C@H](C)[C@@H]1O[C@@H]([C@@H](CC)C(=O)O)CC[C@@H]1C)[C@H]1O[C@]2(C=C[C@@H](O)[C@]3(CC[C@@](C)([C@H]4CC[C@](O)(CC)[C@H](C)O4)O3)O2)[C@H](C)C[C@@H]1C
Not Active: IC50 [1] | Ki [1] | IC50 [2] | Ki [2]

C1CCN2C[C@@H]3C[C@@H](CN4CCCC[C@@H]34)[C@H]2C1
Not Active: IC50 [1] | Ki [1] | IC50 [2] | Ki [2]
